Values quoted from earlier work, collected in PMC10641818, “Development of First-in-Class Dual Sirt2/HDAC6 Inhibitors as Molecular Tools for Dual Inhibition of Tubulin Deacetylation” (Journal of Medicinal Chemistry, 2023).

Chains of the proteins cited; added tags and fusions are not shown.
UniProt Q8IXJ6, whole entry: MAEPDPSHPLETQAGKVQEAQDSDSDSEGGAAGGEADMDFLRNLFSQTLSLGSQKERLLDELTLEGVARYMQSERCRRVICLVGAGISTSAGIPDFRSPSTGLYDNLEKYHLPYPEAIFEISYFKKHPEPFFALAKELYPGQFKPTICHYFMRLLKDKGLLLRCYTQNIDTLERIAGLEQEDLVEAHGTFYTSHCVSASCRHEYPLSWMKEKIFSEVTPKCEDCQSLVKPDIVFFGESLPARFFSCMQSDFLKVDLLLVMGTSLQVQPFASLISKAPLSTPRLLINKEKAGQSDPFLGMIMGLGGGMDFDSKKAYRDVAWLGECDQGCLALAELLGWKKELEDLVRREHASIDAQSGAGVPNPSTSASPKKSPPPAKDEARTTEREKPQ

Biological target: Sirt2 (Homo sapiens, UniProt Q8IXJ6)
Details: read-out: Kd of fluorescent Sirt2 tracer; cited from earlier work

Structure (SMILES): Cc1cc(C)nc(SCC(=O)Nc2ncc(Cc3cccc(OCc4cn(CCCNC(=O)c5ccc6c(c5)C(=O)OC65c6ccc(N(C)C)cc6Oc6cc(N(C)C)ccc65)nn4)c3)s2)n1
- Kd: 250 nM
